Source: publication PMC5573295

Experiments:
[1] = molecular target: rabbit skeletal muscle actin (rabbit) (UniProt P68135)
[2] = molecular target: rabbit skeletal muscle actin (rabbit) (UniProt P68135); remark: listed apart in the source
[3] = molecular target: rabbit skeletal muscle actin (rabbit) (UniProt P68135); remark: listed apart in the source
[4] = molecular target: rabbit skeletal muscle actin (rabbit) (UniProt P68135); remark: listed apart in the source

Question: With “human recombinant H2A histone (natural protein)” as the substance, how does the DNase1 concentration that fully depolymerizes 4 μM F-actin bundled by 3 μM H2A histone, low speed centrifugation (series 2-15 μM DNase1) [1] read?
Answer: 10 µM

Question: What about the F-actin (4 μM, bundled by 3 μM H2A histone) sedimented at low speed after 200 μg/ml DNA, as percent of that without DNA [2] of the same substance?
Answer: 15%

Question: What about the bundling of 4 μM F-actin by 3 μM (42 μg/ml) H2A histone, low speed centrifugation (series 1-4 μM) [3] of the same substance?
Answer: 94%

Question: What about the NaCl at which H2A histone induced F-actin bundles are completely dissociated, low speed centrifugation (0-400 mM NaCl) [4] of the same substance?
Answer: 300 mM
